Test results taken from ChEMBL document CHEMBL1926631, “N⁴-Aryl-6-substitutedphenylmethyl-7H-pyrrolo[2,3-d]pyrimidine-2,4-diamines as receptor tyrosine kinase inhibitors” (Bioorg Med Chem, 2012).

Protein sequences, listed by entry. Tags and fused reporters are not part of them.
UniProt P09619, whole entry: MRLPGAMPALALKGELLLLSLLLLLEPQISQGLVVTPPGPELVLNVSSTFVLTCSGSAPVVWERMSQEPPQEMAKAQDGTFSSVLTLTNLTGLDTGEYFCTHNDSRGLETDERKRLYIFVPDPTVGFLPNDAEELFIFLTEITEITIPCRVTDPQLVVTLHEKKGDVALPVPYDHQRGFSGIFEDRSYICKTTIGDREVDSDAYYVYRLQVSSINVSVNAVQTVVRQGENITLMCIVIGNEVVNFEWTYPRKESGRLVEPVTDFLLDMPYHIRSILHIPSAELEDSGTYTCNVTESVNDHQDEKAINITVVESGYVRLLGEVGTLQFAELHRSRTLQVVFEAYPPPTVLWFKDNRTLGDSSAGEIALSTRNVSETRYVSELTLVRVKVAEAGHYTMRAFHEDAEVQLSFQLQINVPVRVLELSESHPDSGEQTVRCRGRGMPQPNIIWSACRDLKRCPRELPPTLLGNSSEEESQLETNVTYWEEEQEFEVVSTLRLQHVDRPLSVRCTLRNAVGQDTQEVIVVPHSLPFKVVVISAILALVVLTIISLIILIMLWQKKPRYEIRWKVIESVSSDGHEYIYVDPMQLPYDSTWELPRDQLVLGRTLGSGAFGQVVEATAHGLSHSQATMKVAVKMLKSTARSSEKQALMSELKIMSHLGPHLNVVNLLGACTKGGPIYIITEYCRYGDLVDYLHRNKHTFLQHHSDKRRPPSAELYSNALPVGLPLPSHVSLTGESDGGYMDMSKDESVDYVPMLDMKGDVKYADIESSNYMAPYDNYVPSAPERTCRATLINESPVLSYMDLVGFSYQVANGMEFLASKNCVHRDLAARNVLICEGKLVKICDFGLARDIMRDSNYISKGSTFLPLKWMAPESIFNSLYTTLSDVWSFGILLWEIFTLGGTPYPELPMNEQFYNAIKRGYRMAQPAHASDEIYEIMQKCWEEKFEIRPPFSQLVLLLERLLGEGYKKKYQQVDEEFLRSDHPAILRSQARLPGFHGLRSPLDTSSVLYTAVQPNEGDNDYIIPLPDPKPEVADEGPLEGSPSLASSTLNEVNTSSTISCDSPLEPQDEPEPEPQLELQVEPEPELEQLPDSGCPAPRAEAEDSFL
UniProt P17948, whole entry: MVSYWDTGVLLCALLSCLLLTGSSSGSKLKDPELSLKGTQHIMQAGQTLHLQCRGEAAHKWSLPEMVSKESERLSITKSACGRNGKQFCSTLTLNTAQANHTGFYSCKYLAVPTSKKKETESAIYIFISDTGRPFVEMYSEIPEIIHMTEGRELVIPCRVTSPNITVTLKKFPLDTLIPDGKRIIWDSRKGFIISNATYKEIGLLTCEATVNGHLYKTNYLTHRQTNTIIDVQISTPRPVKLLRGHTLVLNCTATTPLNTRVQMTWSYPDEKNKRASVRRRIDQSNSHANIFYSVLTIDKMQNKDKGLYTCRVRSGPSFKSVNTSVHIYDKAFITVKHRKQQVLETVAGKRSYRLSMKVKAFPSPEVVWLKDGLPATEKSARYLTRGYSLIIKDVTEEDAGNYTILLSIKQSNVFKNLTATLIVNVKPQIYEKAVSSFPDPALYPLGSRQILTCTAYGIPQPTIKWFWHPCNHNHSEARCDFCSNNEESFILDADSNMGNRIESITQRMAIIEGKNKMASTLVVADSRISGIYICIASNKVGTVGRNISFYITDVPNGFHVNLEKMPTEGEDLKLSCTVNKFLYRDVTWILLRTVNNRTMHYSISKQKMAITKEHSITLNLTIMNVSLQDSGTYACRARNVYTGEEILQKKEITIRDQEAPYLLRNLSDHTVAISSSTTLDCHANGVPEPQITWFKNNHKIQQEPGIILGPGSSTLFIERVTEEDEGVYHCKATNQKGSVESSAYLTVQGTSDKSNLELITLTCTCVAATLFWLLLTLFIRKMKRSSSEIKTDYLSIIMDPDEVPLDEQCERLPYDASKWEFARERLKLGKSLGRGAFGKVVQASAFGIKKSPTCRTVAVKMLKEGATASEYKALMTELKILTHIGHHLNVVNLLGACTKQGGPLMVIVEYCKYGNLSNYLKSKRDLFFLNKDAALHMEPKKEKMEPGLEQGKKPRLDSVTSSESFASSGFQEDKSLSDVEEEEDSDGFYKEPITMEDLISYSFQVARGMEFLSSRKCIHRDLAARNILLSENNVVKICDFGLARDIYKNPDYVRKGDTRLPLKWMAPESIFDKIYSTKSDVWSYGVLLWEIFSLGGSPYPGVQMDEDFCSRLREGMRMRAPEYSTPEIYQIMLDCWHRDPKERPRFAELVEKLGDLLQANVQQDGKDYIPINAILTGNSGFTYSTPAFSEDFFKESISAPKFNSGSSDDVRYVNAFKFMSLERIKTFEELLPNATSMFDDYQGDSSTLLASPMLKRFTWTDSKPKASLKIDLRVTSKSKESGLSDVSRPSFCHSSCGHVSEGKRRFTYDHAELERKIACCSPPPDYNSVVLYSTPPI
UniProt P35968, whole entry: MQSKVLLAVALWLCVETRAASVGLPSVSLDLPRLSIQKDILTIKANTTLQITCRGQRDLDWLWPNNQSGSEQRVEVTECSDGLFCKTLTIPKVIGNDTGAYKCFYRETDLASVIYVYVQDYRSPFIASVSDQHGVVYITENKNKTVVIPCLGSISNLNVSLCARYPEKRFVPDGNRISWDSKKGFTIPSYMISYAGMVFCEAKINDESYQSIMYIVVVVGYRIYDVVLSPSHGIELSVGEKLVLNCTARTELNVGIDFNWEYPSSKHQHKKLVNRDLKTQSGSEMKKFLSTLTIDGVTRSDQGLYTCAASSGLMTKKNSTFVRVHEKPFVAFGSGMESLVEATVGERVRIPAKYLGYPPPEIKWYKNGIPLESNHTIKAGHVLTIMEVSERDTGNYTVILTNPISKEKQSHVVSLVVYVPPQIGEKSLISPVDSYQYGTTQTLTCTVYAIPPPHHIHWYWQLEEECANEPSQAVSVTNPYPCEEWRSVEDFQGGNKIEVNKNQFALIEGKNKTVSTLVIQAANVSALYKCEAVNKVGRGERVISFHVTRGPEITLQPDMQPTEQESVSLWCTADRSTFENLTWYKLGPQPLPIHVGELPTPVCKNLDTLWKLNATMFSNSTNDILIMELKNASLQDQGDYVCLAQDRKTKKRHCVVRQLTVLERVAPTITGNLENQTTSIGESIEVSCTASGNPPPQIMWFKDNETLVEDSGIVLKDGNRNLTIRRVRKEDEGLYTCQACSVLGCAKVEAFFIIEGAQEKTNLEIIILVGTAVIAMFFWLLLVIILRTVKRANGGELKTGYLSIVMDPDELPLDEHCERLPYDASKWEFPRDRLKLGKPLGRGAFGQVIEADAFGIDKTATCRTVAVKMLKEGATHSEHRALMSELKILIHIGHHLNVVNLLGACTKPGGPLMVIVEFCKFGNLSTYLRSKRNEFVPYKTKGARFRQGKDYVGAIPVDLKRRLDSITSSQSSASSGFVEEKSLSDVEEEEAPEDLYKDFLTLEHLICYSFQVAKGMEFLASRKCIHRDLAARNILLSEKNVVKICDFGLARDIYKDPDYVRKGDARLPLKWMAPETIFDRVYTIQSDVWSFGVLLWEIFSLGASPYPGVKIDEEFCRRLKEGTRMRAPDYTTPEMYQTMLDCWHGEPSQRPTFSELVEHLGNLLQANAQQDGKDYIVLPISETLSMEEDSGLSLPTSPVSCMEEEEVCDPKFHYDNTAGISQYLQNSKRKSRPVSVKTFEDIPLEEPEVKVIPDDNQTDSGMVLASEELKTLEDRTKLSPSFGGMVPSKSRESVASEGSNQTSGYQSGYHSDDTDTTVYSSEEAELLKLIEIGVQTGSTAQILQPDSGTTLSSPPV

Legend:
[1] = target: Platelet-derived growth factor receptor beta (Homo sapiens, UniProt P09619); test: Inhibition of PDGFRbeta tyrosine kinase activity in PDGF-BB-stimulated human SF-539 cells after 60 mins by ELISA; type: cell-based
Procedure, shortened: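 Lysed in ice-cold TBS/0.05% triton with protease and phosphatase inhibitors, heat/ethanol-fixed. Total phosphotyrosine read by HRP anti-phosphotyrosine with luminol chemiluminescence.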

[2] = target: Vascular endothelial growth factor receptor 1 (Homo sapiens, UniProt P17948); test: Inhibition of VEGFR1 tyrosine kinase activity in VEGF-stimulated human A498 cells after 60 mins by ELISA; type: cell-based
Procedure, shortened: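 Then stimulated 10 min with 100 ng/mL growth factor: PDGF-BB for SF-539 (PDGFR-β), VEGF for A498 (VEGFR-1). Lysed in ice-cold TBS/0.05% triton with protease and phosphatase inhibitors, heat/ethanol-fixed. Total phosphotyrosine read by HRP anti-phosphotyrosine with luminol chemiluminescence.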

[3] = target: Vascular endothelial growth factor receptor 2 (Homo sapiens, UniProt P35968); test: Inhibition of VEGFR2 tyrosine kinase activity in VEGF-stimulated human U251 cells after 60 mins by ELISA; type: cell-based, U-251

Row | Structure (SMILES) | IC50 [1] [µM] | IC50 [2] [µM] | IC50 [3] [µM]
1 | COc1ccc(OC)c(Cc2cc3c(Nc4cccc(Br)c4)nc(N)nc3[nH]2)c1 | 8.92 | 31.1 | –
2 | Nc1nc(Nc2cccc(Br)c2)c2cc(Cc3cccc4ccccc34)[nH]c2n1 | > 50 | – | 5.08
